In publication PMC6089664 (Clinical pharmacology and therapeutics, 2017):
Where “and” joins values, the source holds several entries; their conditions need not be identical. Identical values can stand only once.

Assays:
[1] = Population pharmacokinetic; type: in vivo, human; settings: for AUC24,SS/Dose: AUC24,SS/total daily dose; for AUC24,SS/Dose / CL/F / V/F: geometric mean (%CV); for CL/F / V/F: final PK visit
[2] = system: IL-6-stimulated STAT-3 phosphorylation (pSTAT-3); settings: baricitinib trough concentrations, CD8+ T cells
[3] = eGFR <120 ml/min/1.73 m^2, <20kg (n=2)
[4] = eGFR <120 ml/min/1.73 m^2, >40kg (n=3)
[5] = eGFR ≥120 ml/min/1.73 m^2, 20–40kg (n=5)
[6] = eGFR ≥120 ml/min/1.73 m^2, <20kg (n=2)
[7] = eGFR ≥120 ml/min/1.73 m^2, >40kg (n=5)

**Q.** For `CCS(=O)(=O)N1CC(CC#N)(n2cc(-c3ncnc4[nH]ccc34)cn2)C1` [baricitinib, Baricitinib], which “AUC24,SS relative to RA population at 4 mg once daily” value ([1]; 2388 nM*h vs 1304 nM*h, higher) is on record?
**A.** 1.83 fold

**Q.** What about the “AUC24,SS/Dose higher in patients with eGFR below 120 than in weight-matched patients with eGFR ≥120 mL/min/1.73m^2” value ([1]; <20 kg and >40 kg weight categories) of the same compound?
**A.** 52–59%

**Q.** What about the “AUC24,SS/Dose” value [1, 3] of the same compound?
**A.** 513 (4.7%) nM*h/mg

**Q.** What about the CL/F [1, 3] of the same compound?
**A.** 5.3 (4.7%) L/hr

**Q.** What about the “AUC24,SS/Dose” value [1, 4] of the same compound?
**A.** 293 (82.7%) nM*h/mg

**Q.** And the CL/F [1, 4]?
**A.** 9.2 (82.7%) L/hr

**Q.** And the V/F [1, 4]?
**A.** 103.0 (7.9%) L

**Q.** And the “AUC24,SS/Dose” value [1, 5]?
**A.** 292 (36.6%) nM*h/mg

**Q.** What about the CL/F [1, 5] of the same compound?
**A.** 9.2 (CV 36.6%) L/hr and 9.2 (36.6%) L/hr

**Q.** What about the V/F [1, 5] of the same compound?
**A.** 66.2 (25.5%) L

**Q.** And the “AUC24,SS/Dose” value [1, 6]?
**A.** 322 (12.6%) nM*h/mg

**Q.** And the CL/F [1, 6]?
**A.** 8.4 (CV 12.6%) L/hr and 8.4 (12.6%) L/hr

**Q.** What about the V/F [1, 6] of the same compound?
**A.** 53.1 (17.3%) L

**Q.** And the “AUC24,SS/Dose” value [1, 7]?
**A.** 193 (22.2%) nM*h/mg

**Q.** What about the CL/F [1, 7] of the same compound?
**A.** 13.9 (CV 22.2%) L/hr and 13.9 (22.2%) L/hr

**Q.** And the V/F [1, 7]?
**A.** 141.0 (28.0%) L

**Q.** What about the “mean pSTAT-3 MFI ratio compared to healthy controls” value [2] of the same compound?
**A.** no notable difference
